Laboratory results published in ChEMBL document CHEMBL1138658, “Novel 2-aminotetralin and 3-aminochroman derivatives as selective serotonin 5-HT7 receptor agonists and antagonists” (J Med Chem, 2004).

Legend:
Rattus norvegicus = species on record: Rattus norvegicus; assay: Inhibition of 3[H]8-OH--DPAT and [3H]5-HT binding to 5-hydroxytryptamine 1A receptor and 5-hydroxytryptamine 7 receptor in rat
Procedure, shortened: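 Displacement binding with [3H]-8-OH-DPAT at 5-HT1A in rat hippocampal cells, and with [3H]-5-HT at rat 5-HT7 expressed in CHO or Sf9 cells.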

D(2) dopamine receptor [1] = target: T1, D(2) dopamine receptor (Homo sapiens, UniProt P14416); assay: Inhibition of [3H]raclopride binding to Dopamine receptor D2A in human
D(2) dopamine receptor [2] = target: T1, D(2) dopamine receptor; assay: Inhibition of [3H]raclopride binding to human dopamine D2A receptor expressed in Ltk cells; assay type: cell-based

SMILES	Ratio (Rattus norvegicus)	Ki (D(2) dopamine receptor [1]) [nM]	Ki (D(2) dopamine receptor [2]) [nM]
CCCN(CCC)[C@H]1COc2c(cccc2-c2ccccc2)C1	0.42	106	
O=C1c2ccccc2CCCN1CCN1CCC(n2c(=O)[nH]c3cc(F)ccc32)CC1		234	
CCCN(CCC)[C@H]1COc2c(cccc2-c2ccc(OC)cc2)C1	0.1	741	
CCCN(CCC)[C@H]1CCc2c(cccc2-c2c(OC)cccc2OC)C1	44	1210	1210
O=C1c2ccccc2CCCN1CCN1CCC(n2c(O)nc3cc(F)ccc32)CC1	214		
